Values quoted from earlier work, collected in US10335367B2, “Use of selected anticholinergic zwitterions” (Bodor Laboratories, Inc., priority 2015, dated 2019).
Like-named read-outs stand apart in the source and are kept apart here.

Conditions: rabbit, in vivo, cited from earlier work

C[N+]1(CC(=O)[O-])CCC(OC(=O)[C@](O)(c2ccccc2)C2CCCC2)C1 (some centres unmarked)
elimination from systemic circulation: rapid elimination from systemic circulation
elimination from systemic circulation (listed as compound (ii)): rapid elimination from the systemic circulation
